Literature values as cited in publication PMC4033579 (Journal of experimental therapeutics & oncology, 2012).

Test system: lung tumor cells
Conditions: lung cells in culture

N#CC[C@H](C1CCCC1)n1cc(-c2ncnc3[nH]ccc23)cn1 [ruxolitinib]
cytotoxicity at concentrations that inhibit Tyr705 phosphorylation: not cytotoxic
